The record followed here is patent USRE49825E1, “Piperidinyl nociceptin receptor compounds” (Astraea Therapeutics, LLC, priority 2015, dated 2024).

One assay addresses mu opioid receptor (Homo sapiens, UniProt P35372). Put plainly: Radioligand binding assay, [3H]DAMGO, membranes of CHO cells transfected with human mu opioid receptor. The conditions noted are these: read-out: Receptor Binding Ki (nM) μ, Compounds of Formula (II), CHO cell membranes.
In a further assay the target is kappa opioid receptor (Homo sapiens, UniProt P41145). Put plainly: Radioligand binding assay, [3H]U69593, membranes of CHO cells transfected with human kappa opioid receptor. The conditions noted are these: read-out: Receptor Binding Ki (nM) κ, Compounds of Formula (II), CHO cell membranes.
The target in assay [1] is nociceptin (NOP) receptor (Homo sapiens, UniProt P41146). Put plainly: Radioligand binding assay, [3H]N/OFQ, membranes of CHO cells transfected with human NOP receptor.
Where [2] appears, read: read-out: Receptor Binding Ki (nM) NOP, Compounds of Formula (II), CHO cell membranes.

Where two headings read alike, the source gives them in different places.

In general, Ki refers to a measure of affinity in units of concentration, obtained from inhibition or displacement. Turning to `CC(C)[C@H]1CC[C@@H](N2CCC(n3c(CO)c(CN)c4ccccc43)CC2)CC1`, the Ki was less than 15 nM on mu opioid receptor, 150 to 5000 nM on kappa opioid receptor and less than 15 nM in assay [1] (setting [2]).
Take `CC(C)[C@H]1CC[C@@H](N2CCC(n3cc(CN4CCC(O)CC4)c4ccccc43)CC2)CC1`: the inhibition constant Ki in assay [1] (setting [2]) is 15 to 150 nM.
With `CC(C)C1CCC(N2CCC(n3c(CCOC(=O)C(C)(C)C)c(/C=N/O)c4ccccc43)CC2)CC1` (stereo not shown), the Ki (at mu opioid receptor; in assay [1] (setting [2])) was 15 to 150 nM in each case.
`CC(C)[C@H]1CC[C@@H](N2CCC(n3cc(/C=C\C#N)c4ccccc43)CC2)CC1`: the inhibitory constant (Ki) lay within 150 to 5000 nM at mu opioid receptor, 150 to 5000 nM at kappa opioid receptor and 15 to 150 nM in assay [1] (setting [2]).
With `CON=Cc1cc2ccccc2n1C1CCN([C@H]2CC[C@@H](C(C)C)CC2)CC1`, the Ki at mu opioid receptor was 15 to 150 nM; on kappa opioid receptor, 150 to 5000 nM; in assay [1] (setting [2]) it was less than 15 nM.
In the case of `CC(C)[C@H]1CC[C@@H](N2CCC(n3cc(CN4CC[C@@H](O)C4)c4ccccc43)CC2)CC1`, in assay [1] (setting [2]), the inhibition constant (Ki) is less than 15 nM.
`CC(=O)NC(C(=O)NCc1cc2ccccc2n1C1CCN([C@H]2CC[C@@H](C(C)C)CC2)CC1)C(C)C` (relative stereo): the results for the Ki (on mu opioid receptor; at kappa opioid receptor; in assay [1] (setting [2])) were less than 15 nM, 15 to 150 nM and less than 15 nM, respectively.
For the molecule `CCC(=O)NCc1cc2ccccc2n1C1CCN([C@H]2CC[C@@H](C(C)C)CC2)CC1` (relative stereo), the Ki at mu opioid receptor is 15 to 150 nM; on kappa opioid receptor, 15 to 150 nM; in assay [1] (setting [2]), less than 15 nM.
Take `CC(C)[C@H]1CC[C@@H](N2CCC(n3c(CN(C)C(=O)OCc4ccccc4)c(CO)c4ccccc43)CC2)CC1`: the inhibition constant (Ki) at mu opioid receptor is less than 15 nM; on kappa opioid receptor it was 150 to 5000 nM; in assay [1] (setting [2]) it was less than 15 nM.
On to `CC(C)[C@H]1CC[C@@H](N2CCC(n3c(CCOC(=O)C(C)(C)C)cc4ccccc43)CC2)CC1`, for which the Ki (at mu opioid receptor; in assay [1] (setting [2])) was 15 to 150 nM in each case.
As to `CC(C)[C@H]1CC[C@@H](N2CCC(n3c(CCO)c(CN)c4ccccc43)CC2)CC1` (relative stereo), the Ki (on mu opioid receptor; in assay [1] (setting [2])) was less than 15 nM in each case.
As to `CC(C)[C@H]1CC[C@@H](N2CCC(n3cc(CN(C)C)c4ccccc43)CC2)CC1`, the Ki in assay [1] (setting [2]) is 15 to 150 nM.
As for `CC(C)[C@H]1CC[C@@H](N2CCC(n3cc(CNC(=O)CCCCN)c4ccccc43)CC2)CC1`, the Ki on mu opioid receptor is 150 to 5000 nM; in assay [1] (setting [2]) it was 15 to 150 nM.
For `CC(C)[C@H]1CC[C@@H](N2CCC(n3c(CCOC(=O)C(C)(C)C)c(CN)c4ccccc43)CC2)CC1` (relative stereo) the same measures were less than 15 nM and less than 15 nM.
For `CC(C)[C@H]1CC[C@@H](N2CCC(n3cc(CN4CCc5ccccc54)c4ccccc43)CC2)CC1` (relative stereo) the same measures were 150 to 5000 nM and 150 to 5000 nM.
Turning to `CC(C)[C@H]1CC[C@@H](N2CCC(n3cc(CNCCO)c4ccccc43)CC2)CC1`, in assay [1] (setting [2]), the inhibitory constant (Ki) lay in the range of 15 to 150 nM.
`CC(C)C(=O)NC1C(=O)N(C2CCN([C@H]3CC[C@@H](C(C)C)CC3)CC2)c2ccccc21` (stereo partly shown): the Ki in assay [1] (read-out: Receptor Binding Ki (nM) NOP, Compounds of Formula (III), CHO cell membranes) is less than 15 nM.
Consider `CC(C)[C@H]1CC[C@@H](N2CCC(n3cc(CCCNC(N)=S)c4ccccc43)CC2)CC1`, for which, in assay [1] (setting [2]), the Ki was 15 to 150 nM.
As for `CC(C)[C@H]1CC[C@@H](N2CCC(n3cc(CCN)c4ccccc43)CC2)CC1` (relative stereo), the Ki in assay [1] (setting [2]) was less than 15 nM.
On the same count and under the same terms, in the case of `CC(C)[C@H]1CC[C@@H](N2CCC(n3cc(CN4CCCC4)c4ccccc43)CC2)CC1` [Compound 65, 1-(1-(cis-4-isopropylcyclohexyl)piperidin-4-yl)-3-(pyrrolin-1-ylmethyl)-1H-indole] it was less than 15 nM.
Still for that read-out and setting: next, `CC(C)[C@H]1CC[C@@H](N2CCC(n3cc(CNC(=O)C(N)CCCNC(=N)N)c4ccccc43)CC2)CC1` (stereo partly shown): less than 15 nM; `CC(C)[C@H]1CC[C@@H](N2CCC(n3cc(CN4CC(O)C4)c4ccccc43)CC2)CC1` (relative stereo): 15 to 150 nM.
Still for that read-out and setting: in the case of `CCNCC(=O)NCc1cn(C2CCN([C@H]3CC[C@@H](C(C)C)CC3)CC2)c2ccccc12` it was 15 to 150 nM.
On to `CC(C)[C@H]1CC[C@@H](N2CCC(n3cc(CNCc4ccccc4)c4ccccc43)CC2)CC1`, for which the inhibition constant (Ki) (at mu opioid receptor; in assay [1] (setting [2])) was 150 to 5000 nM in each case.
